Earlier results on one substance are cited in patent US10058633B2, “Biodegradable scaffolds” (Board of Regents of the University of Texas System, priority 2010, dated 2018).

The conditions of the data set: in vivo; cited from earlier work.

For VEGF, the half-life was 50 min.

One may read the half-life as the time in which the quantity being followed falls by half.
